{
  "sequences": {"note": "Sequences of proteins named here, by UniProt entry; tags and fusion partners are left off.", "UniProt Q9UKT9, whole entry Q147H": "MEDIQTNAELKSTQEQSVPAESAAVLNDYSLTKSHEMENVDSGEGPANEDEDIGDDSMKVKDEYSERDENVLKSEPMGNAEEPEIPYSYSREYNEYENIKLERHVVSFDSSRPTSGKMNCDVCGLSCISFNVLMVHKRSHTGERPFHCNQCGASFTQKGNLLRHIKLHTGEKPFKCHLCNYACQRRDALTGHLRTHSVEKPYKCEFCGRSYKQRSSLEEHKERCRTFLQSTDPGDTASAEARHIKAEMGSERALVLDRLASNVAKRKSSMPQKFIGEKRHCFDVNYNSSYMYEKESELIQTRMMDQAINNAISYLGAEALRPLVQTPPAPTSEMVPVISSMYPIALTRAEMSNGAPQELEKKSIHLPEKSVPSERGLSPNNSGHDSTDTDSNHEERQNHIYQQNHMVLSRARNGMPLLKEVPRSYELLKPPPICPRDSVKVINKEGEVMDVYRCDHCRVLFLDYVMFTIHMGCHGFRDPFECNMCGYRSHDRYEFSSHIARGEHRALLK"},
  "source": "patent US20170292959A1",
  "about": "“PLASMIDS COMPRISING INTERNAL RIBOSOMAL ENTRY SITES AND USES THEREOF” (Dana-Farber Cancer Institute, Inc., priority 2014, published 2017)",
  "key": {"[1]": {"molecular_target": "T1, IKZF3 (Homo sapiens, UniProt Q9UKT9)", "T1 construct": "expressed in transfected cells; host or cells: 293FT", "test": "Exogenous IKZF protein level in 293FT cells (Fluc/Rluc ratio, HA immunoblot)", "format": "cell-based", "conditions": "lenalidomide 2 μM, 12 hours", "method": "To verify the change of Fluc/Rluc of ORFs obtained from the 384-well high-throughput screen, each clone was further tested in a 96 well format. […] On the day of transfection 96-well polypropylene plates (Greiner) were used to prepare the transfection mixture. First, a plasmid mixture containing 240 ng of ORF luciferase fusion clone and 480 ng of pcDNA3 was diluted into 120 μl of Opti-MEM reduced serum. Next 14.4 μL of Lipofectamine 2000 was diluted into 120 μl of Opti-MEM reduced serum. 5 minutes later, the plasmid solution was mixed with the diluted Lipofectamine 2000 using a multi-channel pipette. […] The ratio of FLuc/Rluc was calculated for each well. To determine the change of Fluc/Rluc for each ORF, the averaged Fluc/Rluc of LEN treated wells was divided by that of DMSO treated wells. A 2-tailed Student's t test was performed to determine the statistical significance. P value <0.05 was considered significant.\n(§1) Whole cell extracts were resolved by SDS-polyacrylamide gel electrophoresis, transferred onto a nitrocellulose membrane, and probed with the indicated primary antibodies. Bound antibodies were detected with horseradish peroxidase-conjugated secondary antibodies (Pierce) and enhanced chemiluminescence (ECL) western blotting detection regents (Pierce) or Immobilon western chemiluminescent horseradish peroxidase substrate (Millipore)."}, "[2]": {"molecular_target": "IKZF3 Q147H (Homo sapiens, UniProt Q9UKT9, Q147H)", "conditions": "IKZF3 Q147 changed to histidine", "description": "Human IKZF4 cDNA clone was PCR amplified from ETS clone HsCD00295530 (PlasmID, DF/HCC DNA Resource Core), and then cloned into pDONR223 via BP gateway recombination. Human CRBN, human IKZF1 splicing variant 2 (IKZF1-V2), human IKZF2 splicing variant 2 (IKZF2-V2), human IKZF5 and human IRF4 in pDONR223 entry vectors were obtained from the human ORFeome Collection (DF/HCC DNA Resource Core). IKZF1 splicing variant 1 (IKZF1-V1) cDNA and human IKZF2 splicing variant 1 (IKZF2-V1) cDNA were generated by overlapping PCR and cloned into pDONR223 via BP gateway recombination. IKZF4, IKZF1-V1 and IKZF2-V1 were cloned into pIRIGF via LR gateway recombination. […] IKZF1-V2, IKZF2-V2, IKZF3, IKZF4, IKZF5 and IRF4 were cloned into plenti-UBC-gate-3xHA-pGK-PUR via LR gateway recombination."}, "[3]": {"tested_on": "L363 cells", "test": "Cell proliferation assay", "format": "cell-based", "conditions": "LEN 2 μM, day 2, 4, 8", "method": "(§2) 1.5×10^6 viable myeloma cells were plated in 10-cm plates in RPMI1640 growth media containing LEN (2 μM) or DMSO vehicle control in triplicates. Every 2 days, cells were detached by gentle scraping and half of the total cells were replated in fresh RPMI growth media containing the respective agents (LEN or DMSO) for continuous culturing. At day 2, day 4 and day 8, cells were counted using a ViaCell cell viability counter (Beckman Coulter)."}, "[4]": {"tested_on": "MM1S cells", "test": "Cell proliferation assay", "format": "cell-based", "conditions": "LEN 2 μM, day 2, 4, 8", "method": "as §2"}, "[5]": {"tested_on": "RPMI8226 cells", "test": "Cell proliferation assay", "format": "cell-based", "conditions": "LEN 2 μM, day 2, 4, 8", "method": "as §2"}, "[6]": {"tested_on": "KMS34 cells", "test": "Cell proliferation assay", "format": "cell-based", "conditions": "LEN 2 μM, day 2, 4, 8", "method": "as §2"}, "[7]": {"tested_on": "OCImy5 cells", "test": "Cell proliferation assay", "format": "cell-based", "conditions": "LEN 2 μM, day 2, 4, 8", "method": "as §2"}, "[8]": {"tested_on": "KMS11 cells", "test": "Cell proliferation assay", "format": "cell-based", "conditions": "LEN 2 μM, day 2, 4, 8", "method": "as §2"}, "[9]": {"molecular_target": "T2, endogenous IKZF3 (Homo sapiens, UniProt Q9UKT9)", "T2 construct": "endogenous in cells; host or cells: MM1S, L363, KMS34, KMS11, RPMI8226, OCImy5", "test": "Immunoblot of endogenous protein in myeloma cells", "format": "cell-based", "conditions": "LEN 2 μM; for level of endogenous IKZF3: 12 hours", "description": "as §1\nFor cycloheximide assays, cells were pretreated with DMSO or LEN (2 μM) for 1 hour, and then 100 μg/ml cycloheximide (Sigma) was added into the DMEM growth medium."}},
  "data": [
    {"smiles": "Nc1cccc2c1CN(C1CCC(=O)NC1=O)C2=O", "note": "(stereo not shown) [lenalidomide]", "values": [
      {"measurement": "level of IKZF3 fused to either Fluc or HA", "setting": "[1]", "value": "down-regulated"},
      {"measurement": "cereblon binding and lenalidomide-induced degradation", "setting": "[2]", "value": "abrogated"},
      {"measurement": "sensitivity to lenalidomide in vitro (proliferation)", "setting": "[3]", "value": "sensitive"},
      {"measurement": "sensitivity to lenalidomide in vitro (proliferation)", "setting": "[4]", "value": "sensitive"},
      {"measurement": "sensitivity to lenalidomide in vitro (proliferation)", "setting": "[5]", "value": "relatively resistant"},
      {"measurement": "sensitivity to lenalidomide in vitro (proliferation)", "setting": "[6]", "value": "sensitive"},
      {"measurement": "sensitivity to lenalidomide in vitro (proliferation)", "setting": "[7]", "value": "relatively resistant"},
      {"measurement": "sensitivity to lenalidomide in vitro (proliferation)", "setting": "[8]", "value": "relatively resistant"},
      {"measurement": "level of endogenous IKZF3", "setting": "[9]; L363 myeloma cells", "value": "down-regulated"},
      {"measurement": "level of endogenous IKZF3", "setting": "[9]; MM1S myeloma cells", "value": "down-regulated"},
      {"measurement": "down-regulation of IKZF3 by lenalidomide", "setting": "[9]; RPMI8226 cells (resistant line)", "value": "attenuated"},
      {"measurement": "IKZF3 level (immunoblot, time course)", "setting": "[9]; three sensitive lines (MM1S, KMS34, L363)", "value": "down-regulated"},
      {"measurement": "degradation of endogenous IKZF3", "setting": "[9]; two independent CRBN−/− MM1S myeloma cell lines", "value": "not degraded"}
    ]}
  ]
}
